Measured values from patent US20130029959A1, “COMPOSITIONS AND METHODS FOR THE TREATMENT OF CANCER” (Massachusetts Institute of Technology, priority 2011, published 2013).

Assays:
[1] = tested on: normal lung fibroblast MRC5; assay: MTT assay, MRC5 cells; assay type: cell-based, human; conditions: MRC5, 72-h incubation, Table 5
[2] = tested on: human colon carcinoma HT29 cells; assay: MTT assay, HT29 cells; assay type: cell-based; conditions: HT29, 72-h incubation, Table 5
[3] = tested on: human lung carcinoma A549 cells; assay: MTT assay, A549 cells; assay type: cell-based; conditions: A549, 72-h incubation, Table 5
calf thymus DNA = assay: Ethidium bromide DNA-binding competition, Scatchard analysis; parameters: key: competitive (type A); non-competitive (type D); both (type B); No inhibition of ethidium binding is labeled as type C

| Compound | IC50 [1] [µM] | IC50 [2] [µM] | IC50 [3] [µM] | type of inhibition of ethidium binding (calf thymus DNA; 12-h incubation period) | type of inhibition of ethidium binding (calf thymus DNA; 1 min incubation period) |
| --- | --- | --- | --- | --- | --- |
| Cc1ccccn1.N.N.O=[N+]([O-])[O-].[Cl][Pt+] [cis-[Pt(NH3)2 (2-methylpyridine)Cl]NO] | 59.9 ± 4.2 | 63.8 ± 1.9 | 50.6 ± 1.7 |  |  |
| N.N.[Cl][Pt][Cl] [cisplatin] |  |  |  | C | C |
